Assay results taken from US6902933B2, “Surface transfection and expression procedure” (Regents of the University of Michigan, priority 2000, dated 2005).

Chains of the proteins cited; added tags and fusions are not shown. Lines headed by an entry give the natural chain unless they say otherwise; changes in a name come on top.
UniProt Q01726: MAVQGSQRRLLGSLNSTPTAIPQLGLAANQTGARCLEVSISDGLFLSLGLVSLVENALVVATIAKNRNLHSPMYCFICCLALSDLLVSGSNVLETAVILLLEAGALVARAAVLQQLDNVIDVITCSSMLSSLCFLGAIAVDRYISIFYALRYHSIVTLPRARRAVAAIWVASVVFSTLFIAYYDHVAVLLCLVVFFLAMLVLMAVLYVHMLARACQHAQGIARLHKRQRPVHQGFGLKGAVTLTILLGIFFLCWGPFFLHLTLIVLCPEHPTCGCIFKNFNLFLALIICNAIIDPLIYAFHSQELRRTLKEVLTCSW

Target: human MC1R (Homo sapiens, UniProt Q01726)
Assay: hMCR1-mediated activation of transcription factors by αMSH, luciferase reporter vectors
Settings: αMSH 10^−7M, 6 hours; pCRE-, pAP1-, pAP1 (PMA)-Luciferase and pTal-Luciferase; FIG. 9

αMSH
luciferase activity fold induction versus untreated transfected cells: specificity of αMSH for hMCR1-mediated activation of transcription factors
